Series [1] can be described thus: pharmacokinetics in Yucatan miniature swine (SC and IV, 20 nmol/kg). Type of series: in vivo, Yucatan miniature swine (Sus scrofa). To be noted: Yucatan mini-swine. Here is the method:
The test animals were a total of four non-naïve male Yucatan miniature swine (Sus scrofa), housed singly. Body weights were from 73 to 75 kg. The housing room(s) were set to maintain a room temperature of 16 to 27° C. (61 to 81″F). Relative humidity was recorded. A 12-hr light/12-hr dark photoperiod was maintained. Room lights may have been turned on during the dark cycle to facilitate sample collection and/or other in-life activities. Animals were fed a maintenance amount of Purina S-9 swine diet. Clean, fresh water from an on-site deep water well was available ad libitum. General, in-cage observations were made at least twice daily (morning and evening) during the study period to assess general health, moribundity or mortality.
Dose concentration was 5.5 mg/mL (dose volume 0.015 mL/kg) for both treatments.
Whole blood samples for pharmacokinetic analysis ˜3 ml/time point) in tubes containing K2EDTA were collected via vascular access ports (VAP). Samples were maintained on wet ice until processing, ˜30 minutes or less post-collection. All samples were centrifuged for ˜15 minutes at ˜3000 rpm and ˜4° C. Resulting plasma was transferred evenly into two cryovials (primary and backup) and placed on dry ice. Plasma samples were stored frozen at ˜70° C., until primary samples were shipped for analysis.
The test animals were a total of four non-naïve male Yucatan mini-swine (Sus scrofa; body weight 73-81 kg), housed singly. Animals were fed a maintenance amount of Purina S-9 swine diet. General, in-cage observations were made at least twice daily (morning and evening) during the study period to assess general health, moribundity or mortality.
Dose concentration was 5.5 mg/mL (dose volume 0.015 mL/kg) for both treatments. Whole blood samples for pharmacokinetic analysis (˜3 mL/time point) were collected via vascular access ports into tubes containing K2EDTA. Samples were maintained on wet ice until processing, ˜30 minutes or less post-collection. All samples were centrifuged for ˜15 minutes at 3000 rpm and ˜4° C. Plasma samples were stored frozen at −70° C., until primary samples were shipped to Frontage Laboratories (Exton, Pa.) for bioanalysis by LC-MS/MS similarly to as outlined below.

Another series relates to DIO rats. As to the kind of experiment: 28-day body weight study in DIO CRL:CD(SD) rats. Type of series: in vivo, rat. To be noted: for body weight loss: 28 days. From the text:
Fifty-four male DIO CRL:CD rats, approximately 14-15 weeks of age upon study initiation, were enrolled in the study at Charles River Laboratories (Shrewsbury, Mass.). […] Food consumption was monitored on Study Days −1 through Study Days 27 (Main Study) or Day 41 (Recovery) by weighing the food and hopper together. The mean value of food consumption for Group 2 determined the amount of food made available to Group 3 in the subsequent feeding session. Similarly, the mean value of food consumed for Group 5 determined the quantity of food available for Group 6 in the subsequent feeding session. Food and drinking water were provided ad libitum throughout the study with the exception of the 5-h fasting periods occurring on Study Days 1, 28, and 42. Animals were randomized into groups based on body weight and non-fasted blood glucose (BG) data collected on Study Day −1. […] The total group dependent dose volume (mL/kg) was based on the most recently recorded body wt. Individual animal body weights were recorded beginning on Day −1. […] On Study Days −1, 1, 3-27, 29, and 36 a 3 μL drop of whole blood was collected via tail snip for assessment of blood glucose using a handheld glucometer (Alpha Trak 2, Abbot). […] Additionally, on Study Day 28 following a 5-hour fast, animals were administered a 10 mL/kg dose of glucose (2 g/kg) via intraperitoneal injection. […] Samples for glucose were read using a handheld glucometer.

The nature of series [2]: CMC of Polysorbate 80 in F58 buffer pH 7.7 with added ALT-801 by surface tensiometry. The series is classed as physicochemical. From the text:
CMC shifts are simply calculated as CMC in the presence of the ALT-801 less the CMC for the surfactant alone in solution.

Series [3] in a line: physical stability of F58 formulation at +2-8° C. (appearance, RP-HPLC). Type of series: physicochemical. Here is the method: F58 is stored at −20° C. […] ALT-801 is a peptide amphiphile formed by the covalent attachment of the hydrophobic alkyl chain of EuPort (e.g., functionalized non-ionic glycolipid surfactant) to the hydrophilic peptide portion. As such, ALT-801 is intended to self-assemble into supramolecular structures such as micelles.

The next series relates to db/db mice. As to the kind of experiment: single-dose blood glucose, body weight and food consumption in db/db mice. Type of series: in vivo, mouse. Here is the method:
A. In vivo assays using db/db mice. About seventy five (75) BKS.Cg-m+/+Leprdb/J (Jackson Labs stock number 000642) male (“db/db”) mice at the age of 7-9 weeks of age were used in these studies, and maintained using standard animal care procedures. Studies initiated after one-week acclimation to facility conditions. On the morning of study day 0, mice were weighed and fasted for 4 hrs. Blood glucose was measured by glucometer using standard procedures. At least fifty-four (54) mice were selected based on body weights and those with blood glucose levels ≥300 mg/dL (i.e., diabetic) were randomly assigned into 6 groups (n=9). […] Clinical observations were conducted at receipt, prior to randomization, and daily from Days 1 to 5. Body weights were measured and recorded at receipt, prior to randomization, and daily from Days 1 to 5. Food consumption was measured and recorded daily from Days 1 to 5.
About seventy-five (75) BKS·Cg-m+/+Leprdb/J (Jackson Labs stock number 000642) male (“db/db”) mice at the age of 7-9 weeks of age were used in these studies and maintained using standard animal care procedures. Studies initiated after one-week acclimation to facility conditions. On the morning of study day 0, mice were weighed and fasted for 4 h Blood glucose was measured by glucometer using standard procedures. At least fifty-four (54) mice were selected based on body wt and those with blood glucose levels >300 mg/dL (i.e., diabetic) were randomly assigned into 6 groups (n=9). […] Body weights were measured and recorded at receipt, prior to randomization, and daily from Days 1 to 5. Food consumption was measured and recorded daily from Days 1 to 5. Blood samples for glucose analysis were collected pre-test (Day −3) and at 0, 2, 4, 8, 24, 48, 72, 96 and 120 hours following the single dose of the indicated compound.

Setting [4] is: male, pig (miniature swine, Sus scrofa), plasma, 20 nmol/kg SC.
[5] abbreviates: db/db mice, 10 nmol/kg single sc dose.

Results on one compound are retold here after US20210290732A1, “GLP-1R and GCGR Agonists, Formulations, and Methods of Use” (Spitfire Pharma LLC, priority 2020, published 2021).

Entries after “also recorded” stand apart in the source; their conditions may differ. Where two headings read alike, the source gives them in different places.

What is called Cmax is the peak of the concentration-time curve. In general, MRT refers to a mean duration of stay, worked out from the concentration-time curve. One may read the Tmax as the time at which the peak concentration occurs. As a reminder, the half-life is how long it takes for the measured level to halve. Read a high half-life as slow decline. With `CC[C@H](C)[C@H](NC(=O)[C@H](Cc1ccccc1)NC(=O)[C@H](CCC(=O)O)NC(=O)[C@@H]1CCCCNC(=O)CC[C@H](NC(=O)[C@H](CC(=O)O)NC(=O)[C@H](CC(C)C)NC(=O)[C@H](Cc2ccc(O)cc2)NC(=O)[C@H](CCCCN)NC(=O)[C@H](CO)NC(=O)[C@H](Cc2ccc(O)cc2)NC(=O)[C@H](CC(=O)O)NC(=O)[C@H](CO)NC(=O)[C@@H](NC(=O)[C@H](Cc2ccccc2)NC(=O)[C@@H](NC(=O)CNC(=O)[C@H](CCC(N)=O)NC(=O)C(C)(C)NC(=O)[C@@H](N)Cc2c[nH]cn2)[C@@H](C)O)[C@@H](C)O)C(=O)N[C@@H](CCCCNC(=O)[C@H]2O[C@@H](OCCCCCCCCCCCCCCCCCC(=O)O)[C@H](O)[C@@H](O)[C@@H]2O)C(=O)N[C@@H](C)C(=O)N[C@@H](C)C(=O)N1)C(=O)N[C@@H](CCC(N)=O)C(=O)N[C@@H](Cc1c[nH]c2ccccc12)C(=O)N[C@@H](CC(C)C)C(=O)N[C@@H](CC(C)C)C(=O)N[C@@H](CCC(N)=O)C(=O)N[C@H](C(N)=O)[C@@H](C)O` [SEQ ID NO: 1], in series [1] (20 nmol/kg SC, listed as 17), the Cmax worked out at 890 ng/mL and the mean residence time MRT stood at 84 h. In series [1] (20 nmol/kg sc and iv, listed as 17), the clinical observations result is on record as “No abnormal clinical observations; also recorded: no clinical observations reported”. Also, in series [1] (male, Yucatan, pig (miniature swine, Sus scrofa), plasma, sc, 20 nmol/kg, 20 nmol/kg SC, read-out: Cmax), the Cmax was 887 ng/mL. The mean residence time MRT in series [1] (male, Yucatan, pig (miniature swine, Sus scrofa), plasma, sc, 20 nmol/kg, 20 nmol/kg SC, read-out: MRT) amounted to 86 h. Besides, in series [1] (setting [4]), the Tmax came out at 52 h and the half-life was 52 h. The bioavailability in series [1] (pig, in vivo, sc, 20 nmol/kg, read-out: bioavailability of subcutaneous vs intravenous administration) came to 73%. For the same compound, the body weight loss with DIO rats (6 nmol/kg QD sc) was −24%. In addition, in the series with DIO rats (12 nmol/kg QD sc), the feeding suppression entry is given as “more sustained feeding suppression”, the “liver weight as % of body weight at 28 days” value stood at 2.4%, the “liver weight at 28 days” value is 8.9 g and the body weight loss is −40%. In the series with DIO rats (low dose 6 nmol/kg QD sc), the “liver weight as % of body weight at 28 days” value was 2.5% and the “liver weight at 28 days” value came out at 11.5 g. The “PS-80 required per mg of ALT-801 to achieve the CMC” value in series [2] is recorded as “at least 1.03 mg”. Besides, the “purity and content by RP-HPLC of the hazy formulation” value in series [3] was “unchanged”. In addition, the “glucoregulatory effect compared to semaglutide” value in the series on db/db mice (db/db mice dose-finding assay) was “more potent and longer-acting than semaglutide”. Further, in the series with db/db mice (setting [5]), the “blood glucose at 48 h” value turned out to be 153 mg/dL and the “blood glucose at 72 h” value came out at 187 mg/dL. In addition, the “blood glucose, maximal effect at 24 h” value in the series on db/db mice (db/db mice, 3 and 10 nmol/kg single sc dose) turned out to be 129 mg/dL. Also, in the series on db/db mice (db/db mice, single SC dose), the body weight response result is listed as “greater weight loss as compared to semaglutide” and the “days on which feeding was suppressed” value is “days 1 through 4”.
